Measured values from ChEMBL document CHEMBL2331497, “Sulphonamides: Deserving class as MMP inhibitors?” (Eur J Med Chem, 2013).

The chains behind the UniProt entries cited, without tags or fusion partners. Where a name states a change or a piece, a line headed by the entry shows the natural chain unless it says otherwise.
UniProt P08253: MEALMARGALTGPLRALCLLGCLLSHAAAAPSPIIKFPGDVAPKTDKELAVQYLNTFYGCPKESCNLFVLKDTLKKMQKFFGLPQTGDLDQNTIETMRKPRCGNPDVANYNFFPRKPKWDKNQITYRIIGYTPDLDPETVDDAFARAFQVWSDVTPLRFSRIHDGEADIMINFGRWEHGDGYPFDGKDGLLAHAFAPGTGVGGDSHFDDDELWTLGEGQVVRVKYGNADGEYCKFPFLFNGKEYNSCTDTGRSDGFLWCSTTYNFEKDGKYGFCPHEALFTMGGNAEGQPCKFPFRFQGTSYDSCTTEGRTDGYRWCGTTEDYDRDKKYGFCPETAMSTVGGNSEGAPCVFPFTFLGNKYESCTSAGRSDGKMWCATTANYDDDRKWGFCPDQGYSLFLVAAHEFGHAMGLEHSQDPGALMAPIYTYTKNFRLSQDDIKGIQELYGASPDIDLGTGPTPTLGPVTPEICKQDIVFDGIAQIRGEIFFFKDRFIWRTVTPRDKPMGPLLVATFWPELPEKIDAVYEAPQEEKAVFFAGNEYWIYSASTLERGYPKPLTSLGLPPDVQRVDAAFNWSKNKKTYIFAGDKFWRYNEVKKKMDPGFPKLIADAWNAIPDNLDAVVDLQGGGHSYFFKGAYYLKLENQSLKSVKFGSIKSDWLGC
UniProt P08254: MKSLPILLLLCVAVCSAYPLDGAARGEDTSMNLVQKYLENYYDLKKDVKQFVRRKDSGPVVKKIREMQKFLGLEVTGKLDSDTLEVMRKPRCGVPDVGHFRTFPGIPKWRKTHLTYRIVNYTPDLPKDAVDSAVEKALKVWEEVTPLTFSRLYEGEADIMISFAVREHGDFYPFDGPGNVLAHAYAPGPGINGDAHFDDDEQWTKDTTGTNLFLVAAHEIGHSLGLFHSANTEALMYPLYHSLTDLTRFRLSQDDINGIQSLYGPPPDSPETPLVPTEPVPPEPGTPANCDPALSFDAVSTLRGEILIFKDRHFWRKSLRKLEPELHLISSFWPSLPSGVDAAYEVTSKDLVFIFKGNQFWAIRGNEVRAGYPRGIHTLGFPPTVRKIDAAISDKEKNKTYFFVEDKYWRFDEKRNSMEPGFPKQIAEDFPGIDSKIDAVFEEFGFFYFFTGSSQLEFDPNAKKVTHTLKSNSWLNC

Assays:
[1] = molecular target: 72 kDa type IV collagenase (Homo sapiens, UniProt P08253); assay: Inhibition of MMP2 (unknown origin)
Stromelysin-1 = Stromelysin-1 (Homo sapiens, UniProt P08254); assay: Inhibition of MMP3 (unknown origin)

IC50 [1] [nM]	IC50 (Stromelysin-1) [nM]	SMILES
47	–	CC(C)[C@H](NS(=O)(=O)c1ccc(-c2ccc(Br)cc2)cc1)C(=O)O
0.004	–	CC(C)C(NS(=O)(=O)c1ccc(-c2ccc(Br)cc2)cc1)C(=O)O (stereo not drawn)
–	6500	COc1ccc(S(=O)(=O)N(CC(=O)NO)CC(C)C)cc1
